From patent publication US20240426809A1, “EVALUATION METHOD OF ANTICANCER DRUG AND SELECTION METHOD OF ANTICANCER DRUG” (TOPPAN Holdings Inc., priority 2023, published 2024) come the findings set out here.

The subject of this test is EML4-ALK positive non-small cell lung cancer cell LCC028-3 strain. In words: Sensitivity evaluation, 3D culture compared with 2D culture (Example 4). The test is classed as cell-based. Particulars: LCC028-3, cell structure (3D) compared with 2D-cultured cells. The method, then:
HUVEC was mixed with NHDF such that HUVEC was 1.5% (number of cells/number of cells) with respect to NHDF, and centrifuged, and the supernatant was removed, and then Hep/Col solution (a mixture solution of heparin and collagen) was added thereto. Next, the supernatant was removed after centrifugation, and then the cells were suspended in a culture medium. The suspension was performed such that the total liquid amount was 135 μL per 0.9×10^6 particles. The cells suspended in the culture medium were seeded in a transwell insert-integrated 96-well (0.4 μm polyester membrane) treated with fibronectin coding, and the cells were precipitated by plate centrifugation (400 G, 2 minutes) and cultured in an incubator at 37° C. in an atmosphere of 5% CO2 to obtain a cell structure consisting of NHDF and HUVEC. On the next day of the start date of the culture, an appropriate amount of cancer cells was seeded on the top surface of the cell structure and cultured to construct a cell structure containing cancer cells, NHDF, and HUVEC.
First, the cancer cells were seeded on a black plate (transparent bottom) at an appropriate seeding number determined in advance. On the next day of the seeding, an anticancer drug solution (a solution containing an anticancer drug in ⅓ amount of the culture medium at the time of seeding) was added to the culture medium to perform drug treatment. […]

Turning to `CCc1cc2c(cc1N1CCC(N3CCOCC3)CC1)C(C)(C)c1[nH]c3cc(C#N)ccc3c1C2=O` [ALK inhibitor, Alectinib], the anticancer effect entry is on record as “smaller” and the “relative cell survival rate” value was “higher”.
